Reference: ChEMBL document CHEMBL4819091, “Identification of novel gankyrin binding scaffolds by high throughput virtual screening” (Bioorg Med Chem Lett, 2021)

Biological target: T1, 26S proteasome non-ATPase regulatory subunit 10 (Homo sapiens) (UniProt O75832)
T1 sequence (whole entry): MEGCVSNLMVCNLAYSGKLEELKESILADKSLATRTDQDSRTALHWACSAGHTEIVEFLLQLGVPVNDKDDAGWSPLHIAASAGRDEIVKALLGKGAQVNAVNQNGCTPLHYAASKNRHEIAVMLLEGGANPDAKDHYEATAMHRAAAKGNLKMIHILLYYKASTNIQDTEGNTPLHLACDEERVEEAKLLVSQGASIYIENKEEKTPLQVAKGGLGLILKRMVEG
Test: Potency index, ratio of deltaTm of compound to deltaTm of Cjoc42 for binding affinity to recombinant human His-tagged gankyrin expressed in Escherichia coli at 300 uM by SYPRO orange dye based thermal shift assay

| Ratio | SMILES |
| --- | --- |
| 4 | O=C(O)COc1ccc(CC(=O)O)cc1-c1cc(-c2ccc(Cl)cc2)n(CCc2ccccc2)n1 |
| 16 | O=C(O)CN(Cc1ccc(Cl)cc1)C(=O)c1cnc(N2CCC[C@H]2COc2ccc(Cl)cc2)nc1CCc1ccccc1 |
